Experimental data: paper PMC4491662, “Synthesis, Biological Evaluation and Molecular Modeling of Substituted Indeno[1,2-b]indoles as Inhibitors of Human Protein Kinase CK2” (Pharmaceuticals, 2015)

Chains of the proteins cited; added tags and fusions are not shown.
UniProt P68400, whole entry: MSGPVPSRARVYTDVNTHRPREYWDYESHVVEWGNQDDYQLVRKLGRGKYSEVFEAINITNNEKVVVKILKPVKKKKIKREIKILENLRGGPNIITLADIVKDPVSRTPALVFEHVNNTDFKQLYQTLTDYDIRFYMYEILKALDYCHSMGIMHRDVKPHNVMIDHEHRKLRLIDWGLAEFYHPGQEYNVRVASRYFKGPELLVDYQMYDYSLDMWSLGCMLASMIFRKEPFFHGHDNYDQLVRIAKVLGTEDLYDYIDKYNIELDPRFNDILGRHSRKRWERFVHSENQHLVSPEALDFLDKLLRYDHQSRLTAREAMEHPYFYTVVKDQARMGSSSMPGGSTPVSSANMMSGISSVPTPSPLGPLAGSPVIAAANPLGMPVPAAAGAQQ

Target: human CK2 holoenzyme (Homo sapiens, UniProt P68400)
Assay: biochemical
Settings: for inhibition at 10 µM: average percent inhibition at 10 µM

Row | SMILES | inhibition at 10 µM | IC50
1 | CC(C)n1c2c(c3c(O)cc(-c4ccccc4)cc31)C(=O)c1ccccc1-2 [Compound 6c, 9-Hydroxy-5-isopropyl-7-phenyl-5H-indeno[1,2-b]indol-10-one] | 42% | 
2 | CC(C)c1ccc2c(c1O)c1c(n2C(C)C)-c2ccccc2C1=O [Compound 6g, 9-Hydroxy-5,8-diisopropyl-5H-indeno[1,2-b]indol-10-one] | 35% | 
3 | CC(C)c1cc(O)c2c3c(n(C(C)C)c2c1)-c1ccccc1C3=O [Compound 6b, 9-Hydroxy-5,7-diisopropyl-5H-indeno[1,2-b]indol-10-one] | 60% | 1450 ± 320 nM
4 | Cc1cc(O)c2c3c(n(C(C)C)c2c1)-c1ccccc1C3=O [Compound 6a, 9-Hydroxy-5-isopropyl-7-methyl-5H-indeno[1,2-b]indol-10-one] | 64% | 1270 ± 270 nM
5 | CC(C)n1c2c(c3c(O)cc(-c4ccco4)cc31)C(=O)c1ccccc1-2 [Compound 6e, 7-Furan-2-yl-9-hydroxy-5-isopropyl-5H-indeno[1,2-b]indol-10-one] | 65% | 3630 ± 340 nM
6 | CC(C)n1c2c(c3c(O)cc(-c4ccc(F)cc4)cc31)C(=O)c1ccccc1-2 [Compound 6d, 7-(4-Fluorophenyl)-9-hydroxy-5-isopropyl-5H-indeno[1,2-b]indol-10-one] | 59% | 2770 ± 350 nM
